# Experimental data taken from publication PMC12658643, “Effects of Ligand N and O Donor Content on the Structure, Aqueous Stability, and SOD Activity of a Series of Mn^2+ Complexes with Pyridine-Containing Tripodal Ligands” (ACS Omega, 2025).
# Only a part of the results on these compounds is given; other tests are left out.
# What was measured:
# [1] = Potentiometric titration of the acidified ligands (protonation constants); conditions: I = 0.10 M KCl
# [2] = Potentiometric titration of the ligands in the presence of MnCl2 (stability of [MnL]^2+ complex, speciation); conditions: conditions of the titration
# Protocol: Titrations were performed using a Thermo Scientific OrionStar T910 automatic titrator equipped with a Ross Orion 8102BNUWP pH electrode. Electrode calibration was performed prior to each experiment using the GLEE method. The electrode standard potential and slope were used to convert millivolt readings from each titration into pH values. An air-sealed, jacketed titration vessel was employed, equipped with ports for titrant addition, nitrogen gas, and the pH probe. Temperature was maintained at 25.0 ± 0.1 °C with a temperature-controlled, circulating water bath. […]
# Reagent stock solutions were prepared in DI H2O (18 MΩ cm^–1). […] The concentration of MnCl2(aq) stock (0.1043 M) was determined by titration with commercially standardized ethylenediaminetetraacetic acid (EDTA) using Eriochrome black T indicator. […] The NaOH stock concentrations of either 0.0100 or 0.0500 M were determined by titrating them in triplicate against the standardized HCl solution.
# The quantities of ligand, HCl, and MnCl2, and concentrations of KCl and NaOH titrant used for each experiment are given in the Supporting Information (Table S34). These quantities were chosen to produce optimum titration curves for the analysis of Mn^2+ complex of each ligand. For a typical experiment, the appropriate quantities of ligand and HCl were added to the titration vessel along with enough DI H2O to give 40 mL of solution. […]
smiles,measurement,setting,value
OCCN(CCO)CCO,Log βLH1 (protonation constant of the ligand),[1]; t = 25 °C,7.783(4)
same,Log Ka1,"[1]; Table S35, t = 25°C",7.783(4)
same,Mn^2+ complex formation in aqueous solution,[2],does not form stable Mn^2+ complexes in aqueous solution
